Measurements published in ChEMBL document CHEMBL3351448, “Discovery of (7-aryl-1,5-naphthyridin-2-yl)ureas as dual inhibitors of ERK2 and Aurora B kinases with antiproliferative activity against cancer cells” (Bioorg Med Chem Lett, 2014).

Protein sequences, listed by entry. Tags and fused reporters are not part of them.
UniProt P28482, whole entry: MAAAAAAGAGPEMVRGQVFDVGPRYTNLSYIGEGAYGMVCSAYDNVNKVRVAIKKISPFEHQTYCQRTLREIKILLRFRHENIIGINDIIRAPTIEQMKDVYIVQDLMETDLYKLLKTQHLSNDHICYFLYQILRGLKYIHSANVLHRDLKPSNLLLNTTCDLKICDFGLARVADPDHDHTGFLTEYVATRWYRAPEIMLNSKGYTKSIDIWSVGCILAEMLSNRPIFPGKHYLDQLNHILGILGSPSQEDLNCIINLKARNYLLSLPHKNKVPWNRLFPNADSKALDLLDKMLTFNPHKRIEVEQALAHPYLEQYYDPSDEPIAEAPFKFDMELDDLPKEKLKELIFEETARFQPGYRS

Target: Mitogen-activated protein kinase 1 (Homo sapiens, UniProt P28482)
Experiment: Inhibition of ERK2 (unknown origin)

IC50: 30 nM
SMILES: Cn1cc(-c2cnc3ccc(NC(=O)NCc4ccccc4)nc3c2)cn1
